Data from the kinase profiling compilation of Christmann-Franck et al. (2016).

Amino acid sequences for entries named in this document (tags omitted).
SGK1 (human), O00141, UniProt O00141, whole entry S422D, looked up: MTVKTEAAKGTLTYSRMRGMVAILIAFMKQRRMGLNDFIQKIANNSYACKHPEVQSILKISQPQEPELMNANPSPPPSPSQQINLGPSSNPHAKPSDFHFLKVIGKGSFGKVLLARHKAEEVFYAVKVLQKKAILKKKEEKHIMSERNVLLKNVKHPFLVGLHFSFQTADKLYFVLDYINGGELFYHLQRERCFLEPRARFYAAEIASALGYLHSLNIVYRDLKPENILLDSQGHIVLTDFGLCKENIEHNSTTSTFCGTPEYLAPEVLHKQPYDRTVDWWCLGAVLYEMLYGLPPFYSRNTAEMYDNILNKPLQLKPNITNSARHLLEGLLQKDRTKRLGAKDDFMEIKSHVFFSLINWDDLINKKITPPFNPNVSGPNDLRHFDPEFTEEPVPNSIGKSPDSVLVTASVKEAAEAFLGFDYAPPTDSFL

Tested on: SGK1 (human), O00141 [S422D]
Assay: radiometric filter-binding kinase assay, Kinase HotSpot
Details: compound 0.5 µM; ATP 10 µM

Compound O=C1Nc2ccc3ncsc3c2/C1=C/c1c[nH]cn1 has a residual activity of 24.7%.
Work on CO[C@H]1[C@@H](OC)C[C@H](C)[C@@H](OC)C2=CC(=O)C=C(NC(=O)/C(C)=C\C=C/[C@H](OC)[C@@H](OC(N)=O)/C(C)=C\[C@@H]1C)C2=O yielded a residual activity of 91.6%.
COc1cc(OC)c(/C=C2\C(=O)Nc3ccccc32)c(OC)c1 showed a residual activity of 86.7%.
With O=C1c2ccccc2-[n+]2ccc3c([nH]c4ccccc43)c21 the residual activity was 88.7%.
